# From PubChem BioAssay (Tox21)
# Protein sequences, listed by entry. Tags and fused reporters are not part of them. Lines headed by an entry give the natural chain unless they say otherwise; changes in a name come on top.
# UniProt Q92731, whole entry, looked up: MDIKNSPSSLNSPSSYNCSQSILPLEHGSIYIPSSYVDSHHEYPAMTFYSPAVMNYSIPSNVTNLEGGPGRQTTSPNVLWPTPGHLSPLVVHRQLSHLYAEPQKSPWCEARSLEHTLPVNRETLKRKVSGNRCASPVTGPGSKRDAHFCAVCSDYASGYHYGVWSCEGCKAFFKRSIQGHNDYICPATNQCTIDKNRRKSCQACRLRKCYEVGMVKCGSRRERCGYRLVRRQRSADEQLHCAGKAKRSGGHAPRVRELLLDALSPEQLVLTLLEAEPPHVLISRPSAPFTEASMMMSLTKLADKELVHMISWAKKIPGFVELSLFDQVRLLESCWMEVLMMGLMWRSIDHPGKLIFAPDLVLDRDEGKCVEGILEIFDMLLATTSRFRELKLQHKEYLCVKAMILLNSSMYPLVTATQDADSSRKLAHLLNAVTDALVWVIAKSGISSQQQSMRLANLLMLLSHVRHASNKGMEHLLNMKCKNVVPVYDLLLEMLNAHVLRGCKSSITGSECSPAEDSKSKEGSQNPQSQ
# UniProt P03372, whole entry, looked up: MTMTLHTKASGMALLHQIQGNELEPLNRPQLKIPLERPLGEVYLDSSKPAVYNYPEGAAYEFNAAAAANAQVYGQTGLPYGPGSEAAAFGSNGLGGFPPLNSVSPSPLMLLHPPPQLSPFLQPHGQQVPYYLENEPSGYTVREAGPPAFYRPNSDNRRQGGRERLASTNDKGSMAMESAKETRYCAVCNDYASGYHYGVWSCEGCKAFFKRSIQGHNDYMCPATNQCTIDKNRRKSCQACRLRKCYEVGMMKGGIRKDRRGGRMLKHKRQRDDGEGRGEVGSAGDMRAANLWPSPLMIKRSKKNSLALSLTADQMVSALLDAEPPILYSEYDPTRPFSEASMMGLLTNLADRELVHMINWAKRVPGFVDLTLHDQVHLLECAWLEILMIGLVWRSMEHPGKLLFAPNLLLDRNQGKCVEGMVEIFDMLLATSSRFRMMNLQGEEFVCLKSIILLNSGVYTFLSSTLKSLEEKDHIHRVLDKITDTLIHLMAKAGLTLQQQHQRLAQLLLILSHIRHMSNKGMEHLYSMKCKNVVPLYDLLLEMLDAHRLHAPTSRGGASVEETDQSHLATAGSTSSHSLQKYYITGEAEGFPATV
# UniProt P10275: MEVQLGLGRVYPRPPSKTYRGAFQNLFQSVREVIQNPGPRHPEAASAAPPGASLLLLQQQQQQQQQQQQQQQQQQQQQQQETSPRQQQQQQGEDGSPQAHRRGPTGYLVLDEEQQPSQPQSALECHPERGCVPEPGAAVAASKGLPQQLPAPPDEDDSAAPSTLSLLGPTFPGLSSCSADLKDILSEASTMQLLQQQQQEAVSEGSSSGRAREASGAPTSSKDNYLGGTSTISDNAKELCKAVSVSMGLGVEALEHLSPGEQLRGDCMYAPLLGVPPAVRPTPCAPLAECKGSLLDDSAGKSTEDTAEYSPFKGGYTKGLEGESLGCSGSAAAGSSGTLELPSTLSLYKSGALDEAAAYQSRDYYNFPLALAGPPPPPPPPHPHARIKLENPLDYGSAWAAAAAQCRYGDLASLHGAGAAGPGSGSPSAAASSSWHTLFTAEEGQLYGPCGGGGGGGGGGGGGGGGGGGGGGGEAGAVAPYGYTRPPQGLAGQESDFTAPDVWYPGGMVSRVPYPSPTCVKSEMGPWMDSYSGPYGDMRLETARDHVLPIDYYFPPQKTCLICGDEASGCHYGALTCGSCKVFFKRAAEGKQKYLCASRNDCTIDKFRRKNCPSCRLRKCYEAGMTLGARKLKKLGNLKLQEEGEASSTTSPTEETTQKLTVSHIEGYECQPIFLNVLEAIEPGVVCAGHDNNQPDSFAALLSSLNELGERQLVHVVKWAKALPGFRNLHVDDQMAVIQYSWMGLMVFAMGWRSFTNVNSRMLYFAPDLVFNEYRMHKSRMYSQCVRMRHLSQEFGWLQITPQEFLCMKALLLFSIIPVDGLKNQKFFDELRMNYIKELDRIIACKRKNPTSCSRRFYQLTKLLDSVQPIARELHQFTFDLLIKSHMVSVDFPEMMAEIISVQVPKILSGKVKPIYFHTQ
# UniProt Q14994: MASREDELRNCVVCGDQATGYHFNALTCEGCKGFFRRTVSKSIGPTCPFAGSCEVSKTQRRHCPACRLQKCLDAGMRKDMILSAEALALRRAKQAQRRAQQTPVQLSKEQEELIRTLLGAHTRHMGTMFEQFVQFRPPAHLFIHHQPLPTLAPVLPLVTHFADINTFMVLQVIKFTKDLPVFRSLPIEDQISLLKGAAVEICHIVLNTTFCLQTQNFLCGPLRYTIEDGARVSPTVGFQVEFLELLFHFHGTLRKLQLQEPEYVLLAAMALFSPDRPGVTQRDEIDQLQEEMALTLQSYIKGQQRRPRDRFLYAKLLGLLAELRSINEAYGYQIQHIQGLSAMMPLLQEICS
# Where “and” joins values, the source holds several entries; their conditions need not be identical. Equal values may be shown once. For some assays here: Shown are results outside the selection of hits, which stands elsewhere. Inconclusive results are not listed. The source holds several records for some structures; these can differ, active in one and inactive in another. This is a selection; strong and weak results do not stand in their true shares. Calls of active or inactive are those of the source. Unless noted, calls come from the whole dose curve; as a rule, active = well fitted curve in the direction sought with a large enough effect in the repeat runs; inconclusive = weak or mixed curves; inactive = no such curve, though single readings can be large; an effect the other way counts as inactive or inconclusive.
# Experiments:
# [1] = qHTS assay to identify small molecule antagonists of the retinoic acid receptor (RAR) signaling pathway (AID 1159552; note: nearly all actives have a fitted effect of over 50% in size)
# In short: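 Retinol at 1 uM final stimulated RARE-luciferase expression in C3RL4 cells exposed to test compounds for 6 hr at 37 C. Reduced luminescence, read 30 min after detection reagent, indicated pathway antagonism.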
# [2] = molecular target: Estrogen receptor beta (Homo sapiens) (UniProt Q92731); assay: qHTS assay to identify small molecule antagonists of the estrogen receptor beta (ER-beta) signaling pathway (AID 1259378; active = well fitted inhibition curve with a large enough effect in the signal ratio in the repeat runs, not every such curve was filed as active; the % refers to the signal ratio; note: potency is the fitted concentration of half-maximal effect)
# In short: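 ER-beta-UAS-bla HEK293T cells in 2% charcoal-stripped FBS medium treated with compound plus 1nM final 17-beta-estradiol for 16 hr at 37C. Beta-lactamase reporter read by FRET substrate fluorescence after 2 hours at room temperature.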
# [3] = molecular target: Nuclear receptor subfamily 1 group I member 2 (Homo sapiens) (UniProt O75469); assay: Human pregnane X receptor (PXR) small molecule agonists, qHTS assay (AID 1346982); note: nearly all actives have a fitted effect of over 35% in size; note: potency is the fitted concentration of half-maximal effect
# In short: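 Luminescence (ONE-Glo, 30 min RT) after 24 hr compound exposure of PXR-Luc HepG2 cells; cells rested 5 hr post-plating in 5% charcoal-stripped FBS medium.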
# [4] = molecular target: Nuclear receptor subfamily 1 group I member 2 (Homo sapiens) (UniProt O75469); assay: CYP3A4 induction through human pregnane X receptor (PXR) by small molecules, qHTS assay (AID 1346984); note: nearly all actives have a fitted effect of over 40% in size
# In short: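 DPX-2 reporter cells; 24h cpd, 37C; Luciferin-IPA 3uM final x3h; One-Glo 30 min RT; lumi read.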
# [5] = molecular target: Nuclear receptor subfamily 1 group I member 2 (Homo sapiens) (UniProt O75469); assay: Human pregnane X receptor (PXR) activation by small molecules, qHTS assay (AID 1346985); note: nearly all actives have a fitted effect of over 40% in size
# [6] = molecular target: Estrogen receptor (Homo sapiens) (UniProt P03372); assay: qHTS assay to identify small molecule antagonists of the estrogen receptor alpha (ER-alpha) signaling pathway (AID 743069; active = well fitted curve in the direction sought with a large enough effect in the signal ratio in the repeat runs, not every such curve was filed as active; the % refers to the signal ratio)
# [7] = molecular target: Estrogen receptor (Homo sapiens) (UniProt P03372); assay: qHTS assay to identify small molecule agonists of the estrogen receptor alpha (ER-alpha) signaling pathway (AID 743075; calls by dose curve;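 note: HEK293 GripTite cells with ER-alpha and UAS-driven beta-lactamase reporter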)
# [8] = molecular target: Estrogen receptor (Homo sapiens) (UniProt P03372); assay: qHTS assay to identify small molecule agonists of the estrogen receptor alpha (ER-alpha) signaling pathway using the BG1 cell line (AID 743079); note: nearly all actives have a fitted effect of over 20% in size
# [9] = molecular target: Estrogen receptor (Homo sapiens) (UniProt P03372); assay: qHTS assay to identify small molecule antagonists of the estrogen receptor alpha (ER-alpha) signaling pathway using the BG1 cell line in the presence of 0.1 nM 17-beta-estradiol (AID 1259244); conditions: VM7Luc4E2 (BG1) ERE-luciferase, antagonist mode, 0.1 nM E2, 22 h; note: nearly all actives have a fitted effect of over 50% in size
# [10] = molecular target: Estrogen receptor (Homo sapiens) (UniProt P03372); assay: qHTS assay to identify small molecule agonists of the estrogen receptor alpha (ER-alpha) signaling pathway in the presence of an antagonist (AID 1259383; calls by dose curve; note: top concentration of the series differs between compounds; nearly all actives have a fitted effect of over 15% in size)
# [11] = molecular target: Androgen receptor (Homo sapiens) (UniProt P10275); assay: qHTS assay to identify small molecule agonists of the androgen receptor (AR) signaling pathway using the MDA cell line (AID 743040; note: nearly all actives have a fitted effect of over 20% in size); conditions: MDA-kb2 AR-luc cells, MMTV luciferase, 16 h, stronger effect = higher value
# [12] = molecular target: Androgen receptor (Homo sapiens) (UniProt P10275); assay: qHTS assay to identify small molecule antagonists of the androgen receptor (AR) signaling pathway using the MDA cell line (AID 743042; note: nearly all actives have a fitted effect of over 55% in size; note: potency is the fitted concentration of half-maximal effect)
# [13] = molecular target: Androgen receptor (Homo sapiens) (UniProt P10275); assay: qHTS assay to identify small molecule antagonists of the androgen receptor (AR) signaling pathway using the MDA cell line in the presence of 0.5 nM R1881 (AID 1259243); note: nearly all actives have a fitted effect of over 50% in size; note: potency is the fitted concentration of half-maximal effect
# [14] = molecular target: Androgen receptor (Homo sapiens) (UniProt P10275); assay: qHTS assay to identify small molecule agonists of the androgen receptor (AR) signaling pathway in the presence of an antagonist (AID 1259381; calls by dose curve; note: nearly all actives have a fitted effect of over 15% in size; note: potency is the fitted concentration of half-maximal effect)
# [15] = molecular target: Nuclear receptor subfamily 1 group I member 3 (Homo sapiens) (UniProt Q14994); assay: qHTS assay to identify small molecule agonists of the constitutive androstane receptor (CAR) signaling pathway (AID 1224839); conditions: HepG2 hCAR CYP2B6-luciferase, agonist mode, 24 h;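 note: HepG2 cells stably carrying human CAR and a CYP2B6 luciferase reporter; nearly all actives have a fitted effect of over 15% in size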
# [16] = molecular target: Nuclear receptor subfamily 1 group I member 3 (Homo sapiens) (UniProt Q14994); assay: qHTS assay to identify small molecule antagonists of the constitutive androstane receptor (CAR) signaling pathway (AID 1224838); conditions: HepG2-CYP2B6-hCAR luciferase, CITCO-stimulated, 24 h;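 note: HepG2 cells stably expressing hCAR with CYP2B6 luciferase reporter stimulated by CITCO; nearly all actives have a fitted effect of over 40% in size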
# % is set by controls: 0 for no effect and ±100 for the full control effect.
compound,measurement,setting,value
CC(N=C(NC#N)Nc1ccncc1)C(C)(C)C (stereo not given),Potency,[1],inactive
same,Potency,[2],inactive
same,Potency,[3],inactive
same,Potency,[4],inactive
same,Potency,[5],inactive
Oc1ccc(C(O)CNCCCCCCNCC(O)c2ccc(O)c(O)c2)cc1O (stereo not given),Potency,[6],inactive
same,Potency,[7],inactive
same,Potency,[8],inactive
same,"activity change, negative = inhibition",[9]; at 42.5 µM (top of the series),inactive: -2.72%
same,Potency,[2],inactive
same,Potency,[10],inactive
CCCCCCCCCCCC[N+](C)(C)Cc1ccccc1,activity change,[11]; at 70.3 µM (top of the series),inactive: -10.7% and inactive: 11.4%
same,activity change,[11]; at 95 µM (top of the series),inactive: -11%
same,Potency,[12],active: 21.1 µM and active: 16.9 µM and active: 21 µM
same,Potency,[13],active: 9.5 µM and active: 11.8 µM and active: 5.31 µM
same,Potency,[2],active: 47.6 µM
same,Potency,[14],inactive
NC1CCN(c2nc3c(cc2F)c(=O)c(C(=O)O)cn3-c2ccc(F)cc2F)C1 (stereo not given),activity change,[11]; at 70.3 µM (top of the series),inactive: 3.35%
same,Potency,[12],inactive
same,Potency,[13],inactive
same,Potency,[14],active: 29.8 µM
O=C(O)Cc1ccccc1Nc1c(Cl)cccc1Cl,activation,[15]; at 42.5 µM (top of the series),inactive: 2.28%
same,activation,[15]; at 92.4 µM (top of the series),inactive: 0.768%
O=C(O)O,activation,[15]; at 8.39 µM (top of the series),inactive: 6.98%
CSc1ccc(C(=O)c2[nH]c(=O)[nH]c2C)cc1,"activity, negative = inhibition",[16]; at 42.5 µM (top of the series),inactive: 2.21%
C[C@]12CCC(=O)C=C1CC[C@@H]1[C@@H]2[C@@H](O)C[C@@]2(C)[C@H]1CC[C@]2(O)C(=O)CO,"activity, negative = inhibition",[16]; at 42.5 µM (top of the series),inactive: 5.33%
same,"activity, negative = inhibition",[16]; at 92.4 µM (top of the series),inactive: -8.91%
same,Potency,[3],active: 30.9 µM and inactive
same,Potency,[5],inactive
N=C(N)N1CCc2ccccc2C1,Potency,[6],inactive
same,Potency,[7],inactive
same,Potency,[8],inactive
same,"activity change, negative = inhibition",[9]; at 8.39 µM (top of the series),inactive: -8.37%
same,"activity, negative = inhibition",[2],inactive: 6.74% [at 8.39 µM]
same,activation,[10],inactive: -0.711% [at 8.39 µM]
